From US8962608B2, “Cycloalkylnitrile pyrazole carboxamides as janus kinase inhibitors” (Merck Sharp & Dohme Corp., priority 2011, dated 2015)

Sequences of proteins named here, by UniProt entry; tags and fusion partners are left off. Residues count along the entry.
UniProt P23458, 875-1153: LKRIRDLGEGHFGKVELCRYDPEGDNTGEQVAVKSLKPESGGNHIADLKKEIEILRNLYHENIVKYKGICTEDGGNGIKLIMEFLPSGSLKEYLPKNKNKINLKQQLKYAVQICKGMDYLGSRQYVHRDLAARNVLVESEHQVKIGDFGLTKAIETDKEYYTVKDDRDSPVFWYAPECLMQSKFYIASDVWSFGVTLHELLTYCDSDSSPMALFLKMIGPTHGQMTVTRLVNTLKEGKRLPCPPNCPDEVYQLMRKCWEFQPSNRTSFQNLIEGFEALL
UniProt O60674, 849-1124: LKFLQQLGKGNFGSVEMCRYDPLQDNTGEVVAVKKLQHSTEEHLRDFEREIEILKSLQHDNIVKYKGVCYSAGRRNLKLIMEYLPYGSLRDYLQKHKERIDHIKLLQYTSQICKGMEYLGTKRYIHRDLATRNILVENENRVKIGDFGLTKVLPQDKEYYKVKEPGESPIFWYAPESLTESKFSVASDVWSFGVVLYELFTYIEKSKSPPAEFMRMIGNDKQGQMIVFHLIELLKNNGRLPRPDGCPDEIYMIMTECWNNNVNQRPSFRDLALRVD

Tests used:
[1] = target: JAK1 (recombinant purified GST-tagged catalytic domain) (Homo sapiens (Human), UniProt P23458); assay: biochemical;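 also: biochemical assay with HTRF read-out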
[2] = target: JAK2 (recombinant purified GST-tagged catalytic domain) (Homo sapiens (Human), UniProt O60674); assay: biochemical;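 also: biochemical JAK kinase assay with HTRF detection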

| SMILES | IC50 [1] | IC50 [2] |
| --- | --- | --- |
| N#C[C@H]1C[C@H](N2CC3(CCC3)C2)CC[C@@H]1n1cc(C(N)=O)c(Nc2ccc([C@@H](O)C(F)(F)F)cc2)n1 (single isomer, unassigned) [Example 28-92, 1-[(1S,2S,4R or 1R,2R,4S)-4-(2-azaspiro[3.3]hept-2-yl)-2-cyanocyclohexyl]-3-({4-[(1R or 1S)-2,2,2-trifluoro-1-hydroxyethyl]phenyl}amino)-1H-pyrazole-4-carboxamide] | 0.0001 µM | 0.027 µM |
| N#C[C@H]1CCCCC1n1cc(C(N)=O)c(Nc2ccc(F)cc2)n1 (mixture of isomers) [Example 17-18, 1-[(1S,2S and 1R,2R)-2-cyanocyclohexyl]-3-[(4-fluorophenyl)amino]-1H-pyrazole-4-carboxamide] | 0.003 µM | 0.022 µM |
| C[C@](O)(c1ccc(Nc2nn([C@H]3CC[C@@H](O)C[C@@H]3C#N)cc2C(N)=O)cc1)C(F)(F)F (single isomer, unassigned) [Example 25-8, 1-[(1S,2S,4R or 1R,2R,4S)-2-cyano-4-hydroxycyclohexyl]-3-({4-[(1S or 1R)-2,2,2-trifluoro-1-hydroxy-1-methylethyl]phenyl}amino)-1H-pyrazole-4-carboxamide] | 0.0006 µM | 0.004 µM |
| C[C@H]1C[C@H](C)N1[C@H]1CC[C@H](n2cc(C(N)=O)c(Nc3ccc(C(F)(F)F)cc3)n2)[C@@H](C#N)C1 (single isomer, unassigned) [Example 28-21, 1-{(1S,2S,4S or 1R,2R,4R)-2-cyano-4-[(2S,4S or 2R,4R)-2,4-dimethylazetidin-1-yl]cyclohexyl}-3-{[4-(trifluoromethyl)phenyl]amino}-1H-pyrazole-4-carboxamide] | – | 0.335 µM |
| N#C[C@@H]1CCCC[C@@H]1n1cc(C(N)=O)c(Nc2ccc(F)nc2)n1 (racemic) [Example 17-24, 1-[(1S,2R and 1R,2S)-2-cyanocyclohexyl]-3-[(6-fluoropyridin-3-yl)amino]-1H-pyrazole-4-carboxamide] | – | 0.075 µM |
| N#Cc1ccc(Nc2nn([C@H]3CC[C@H](NCC(F)F)C[C@@H]3C#N)cc2C(N)=O)cc1 (single isomer, unassigned) [Example 28-116, 1-{(1S,2S,4S or 1R,2R,4R)-2-cyano-4-[(2,2-difluoroethyl)amino]cyclohexyl}-3-[(4-cyanophenyl)amino]-1H-pyrazole-4-carboxamide] | – | 0.009 µM |
| CC(C)(C)OC(=O)[C@H]1CCC(n2cc(C(N)=O)c(Nc3ccc(F)cc3)n2)[C@@H](C#N)C1 (mixture of isomers) [Example 7-1, tert-Butyl (1S,3S,4S and 1R,3R,4R)-4-{4-carbamoyl-3-[(4-fluorophenyl)amino]-1H-pyrazol-1-yl}-3-cyanocyclohexanecarboxylate] | – | 0.464 µM |
| N#C[C@H]1CC(NC2COC2)CC[C@@H]1n1cc(C(N)=O)c(Nc2ccc(S(=O)(=O)C(F)(F)F)cc2)n1 (single isomer, unassigned) [Example 28-155, 1-[(1S,2S or 1R,2R)-2-cyano-4-(oxetan-3-ylamino)cyclohexyl]-3-({4-[(trifluoromethyl)sulfonyl]phen-yl}amino)-1H-pyrazole-4-carboxamide] | – | 0.003 µM |
| N#C[C@H]1C[C@H](N2CC3(CCC3)C2)CC[C@@H]1n1cc(C(N)=O)c(Nc2ccc([C@H](O)C(F)(F)F)cc2)n1 (single isomer, unassigned) [Example 28-51, 1-[(1S,2S,4R or 1R,2R,4S)-4-(2-azaspiro[3.3]hept-2-yl)-2-cyanocyclohexyl]-3-({4-[(1S or 1R)-2,2,2-trifluoro-1-hydroxyethyl]phenyl}amino)-1H-pyrazole-4-carboxamide] | – | 0.037 µM |
| CN(C)[C@H]1CC[C@H](n2cc(C(N)=O)c(Nc3ccc(F)cc3)n2)[C@@H](C#N)C1 (single isomer, unassigned) [Example 28-102, 1-[(1S,2S,4S or 1R,2R,4R)-2-cyano-4-(dimethylamino)cyclohexyl]-3-[(4-fluorophenyl)amino]-1H-pyrazole-4-carboxamide] | – | 0.027 µM |
| N#C[C@H]1C[C@@H](NCC(F)(F)F)CC[C@@H]1n1cc(C(N)=O)c(Nc2ccc(Cl)cc2)n1 (single isomer, unassigned) [Example 28-224, 3-[(4-chlorophenyl)amino]-1-{(1S,2S,4S or 1R,2R,4R)-2-cyano-4-[(2,2,2-trifluoroethyl)amino]cyclo-hexyl}-1H-pyrazole-4-carboxamide] | – | 0.034 µM |

Now from value to molecule:

| IC50 [1] | IC50 [2] | SMILES |
| --- | --- | --- |
| 0.003 µM | 0.208 µM | CC(C)(N[C@@H]1CCC(n2cc(C(N)=O)c(Nc3ccc(Cl)cc3)n2)[C@@H](C#N)C1)C1CC1 (single isomer, unassigned) [Example 28-209, 3-[(4-chlorophenyl)amino]-1-{(1S,2S,4R or 1R,2R,4S)-2-cyano-4-[(1-cyclopropyl-1-methylethyl)amino]cyclohexyl}-1H-pyrazole-4-carboxamide] |
| 0.00045 µM | 0.002 µM | C[C@](O)(c1ccc(Nc2nn([C@H]3CC[C@H](O)C[C@@H]3C#N)cc2C(N)=O)cc1)C(F)(F)F (single isomer, unassigned) [Example 33-12, 1-[(1S,2S,4S or 1R,2R,4R)-2-cyano-4-hydroxycyclohexyl]-3-({4-[(1S or 1R)-2,2,2-trifluoro-1-hydroxy-1-methylethyl]phenyl}amino)-1H-pyrazole-4-carboxamide] |
| – | 0.062 µM | N#C[C@H]1C[C@H](N2CC(O)(C(F)(F)F)C2)CC[C@@H]1n1cc(C(N)=O)c(Nc2ccc(C(F)(F)F)cc2)n1 (single isomer, unassigned) [Example 28-201, 1-{(1S,2S,4R or 1R,2R,4S)-2-cyano-4-[3-hydroxy-3-(trifluoromethyl)azetidin-1-yl]cyclohexyl}-3-{[4-(trifluoromethyl)phenyl]amino}-1H-pyrazole-4-carboxamide] |
| – | 0.17 µM | COCC(C)(C)N[C@H]1CCC(n2cc(C(N)=O)c(Nc3ccccc3)n2)[C@@H](C#N)C1 (single isomer, unassigned) [Example 28-231, 1-{(1S,2S,4S or 1R,2R,4R)-2-cyano-4-[(2-methoxy-1,1-dimethylethyl)amino]cyclo-hexyl}-3-(phenylamino)-1H-pyrazole-4-carboxamide] |
| – | 0.019 µM | N#C[C@@H]1CC2(CCC1n1cc(C(N)=O)c(Nc3ccnc(F)c3)n1)CC2 (mixture of isomers) [Example 11-7, 1-((5R,6R and 5S,6S)-5-cyanospiro[2.5]octan-6-yl)-3-((2-fluoropyridin-4-yl)amino)-1H-pyrazole-4-carboxamide] |
| – | 0.004 µM | CC(C)(c1ccc(Nc2nn([C@H]3CC[C@@](C)(O)C[C@@H]3C#N)cc2C(N)=O)cc1)C(O)C(F)(F)F (single isomer, unassigned) [Example 32-2, 1-[(1S,2S,4R or 1R,2R,4S)-2-cyano-4-hydroxy-4-methylcyclohexyl]-3-{[4-(3,3,3-trifluoro-(2R or 2S)-hydroxy-1,1-dimethylpropyl)phenyl]amino}-1H-pyrazole-4-carboxamide] |
| – | 0.01 µM | N#C[C@H]1C[C@](O)(C2CC2)CC[C@@H]1n1cc(C(N)=O)c(Nc2ccc(Cl)cc2)n1 (single isomer, unassigned) [Example 32-12, 3-[(4-chlorophenyl)aminol-1-[(1S,2S,4S or 1R,2R,4R)-2-cyano-4-cyclopropyl-4-hydroxycyclohexyl]-1H-pyrazole-4-carboxamide] |
